{"sequences": {"note": "By UniProt entry, the sequences of proteins in these tests, tags left out.", "UniProt Q99640, whole entry": "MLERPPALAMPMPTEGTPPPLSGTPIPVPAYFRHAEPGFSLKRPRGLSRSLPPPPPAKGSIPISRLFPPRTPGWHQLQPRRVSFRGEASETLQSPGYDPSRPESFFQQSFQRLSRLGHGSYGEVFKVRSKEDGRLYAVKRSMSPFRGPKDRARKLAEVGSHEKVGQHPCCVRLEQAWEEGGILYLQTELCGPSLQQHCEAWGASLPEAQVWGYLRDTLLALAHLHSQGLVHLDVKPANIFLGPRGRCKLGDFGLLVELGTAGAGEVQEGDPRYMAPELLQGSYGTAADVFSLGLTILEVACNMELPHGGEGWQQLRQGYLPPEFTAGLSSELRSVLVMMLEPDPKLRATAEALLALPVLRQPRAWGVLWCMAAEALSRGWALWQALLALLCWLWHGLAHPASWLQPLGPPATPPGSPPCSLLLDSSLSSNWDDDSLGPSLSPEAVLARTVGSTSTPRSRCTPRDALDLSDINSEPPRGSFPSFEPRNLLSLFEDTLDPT"}, "source": "patent US20260176270A1", "about": "(Exelixis, Inc., priority 2022, published 2026)", "key": {"[1]": {"molecular_target": "PKMYT1 (Homo sapiens, UniProt Q99640)", "assay": "ADP-Glo PKMYT1 ATP-depletion assay", "conditions": "read-out: Biochemical IC50, 50 nM PKMYT1, 13.3 nM CDK1", "procedure": "(§1) Biochemical IC50 values were determined via ADP-Glo™ assay. Cellular IC50 values were determined via AlphaLISA assay.\nADP-Glo™ PKMYT1 ATP-depletion assay. The activity of PKMYT1 is measured using a luciferase-luciferin based ATP detection reaction to quantify ATP depletion resulting from kinase-catalyzed phosphoryl transfer to CDK1 or autophosphorylation of PKMYT1. The ADP generated as a byproduct of the reaction is converted to ATP and used to drive a luciferase reaction. Test compounds were dissolved in DMSO and dispensed into Corning 3824 384-well plates prior to the experiment such that the final DMSO concentration was <1%. To the compounds was added 3 μL of PKMYT1 (93 kD, full length, N-terminal GST tag from Signal Chem). The reaction was started by the addition of 2 μL of CDK1 (58 kDa, full length, N-terminal GST tag from Signal Chem) and ATP in assay buffer (50 mM Hepes, 40 mM NaCl, 10 mM MgCl2, 1 mM DTT, 0.1 mg/mL BSA, 2.5 mM MnCl2). Final assay concentrations were 50 nM PKMYT1, 13.3 nM CDK1, and 88 µM ATP. Plates were centrifuged for 1 minute at 1000 RPM and incubated at RT for 120 minutes. […] 30 minutes after the addition, plates were placed on a PHERAstar® plate reader and read using the Luminescence Protocol, integration time at 0.5 seconds."}, "[2]": {"test_system": "phosphorylation of CDK1 at Thr14 in HCC1806 cells", "assay": "Cell lysate AlphaLISA assay measuring inhibition of phosphorylation of CDK1 Thr14", "conditions": "read-out: Cellular IC50, 4 hours", "procedure": "as §1\nCell lysate AlphaLISA® assay measuring inhibition of phosphorylation of CDK1 Thr14. Inhibition of phosphorylation of CDK1 at Thr14 was determined using AlphaLISA® SureFire® Ultra™ Kit from Perkin Elmer (ALSU-PCDK1-A10K). HCC1806 cells were seeded at 2K cells per well (50 μl/well) in 384-well plates (Corning 3570) and stored overnight at 37° C. and 5% CO2. The following day, the compounds dissolved in DMSO were introduced to the cells and incubated for 4 hours at 37° C. and 5% CO2. The cells were then washed with PBS using Blue®Washer and 10 μl of lysis buffer containing protease inhibitor was added. The plate was placed on an orbital shaker (at 4° C.) for 30 minutes and stored overnight at −80° C. for complete lysing. The next day, the plates were thawed at room temperature for at least 30 min. Reagents were prepared in a dimmed light setting (<100 lumens). […] The donor mix (dilution buffer: donor beads 47:3) was then added at 5 μl per well, placed on the shaker for 2 minutes and incubated at RT for 60 minutes before reading the plates on a PHERAstar® plate reader. […]"}}, "data": [{"molecule": "COc1nc2cc(C#N)c(N)c(-c3cccc(O)c3C)c2nc1OC", "values": [{"measurement": "IC50", "setting": "[1]", "result": "0.05 to 0.5", "unit": "µM"}, {"measurement": "IC50", "setting": "[2]", "result": "1 to 5", "unit": "µM"}]}]}
